Target: Potassium voltage-gated channel subfamily H member 2 (Homo sapiens, UniProt Q12809)

Sequences of proteins named here, by UniProt entry; tags and fusion partners are left off. A change or cut given only in a name is not applied to a line headed by its entry.
UniProt Q12809: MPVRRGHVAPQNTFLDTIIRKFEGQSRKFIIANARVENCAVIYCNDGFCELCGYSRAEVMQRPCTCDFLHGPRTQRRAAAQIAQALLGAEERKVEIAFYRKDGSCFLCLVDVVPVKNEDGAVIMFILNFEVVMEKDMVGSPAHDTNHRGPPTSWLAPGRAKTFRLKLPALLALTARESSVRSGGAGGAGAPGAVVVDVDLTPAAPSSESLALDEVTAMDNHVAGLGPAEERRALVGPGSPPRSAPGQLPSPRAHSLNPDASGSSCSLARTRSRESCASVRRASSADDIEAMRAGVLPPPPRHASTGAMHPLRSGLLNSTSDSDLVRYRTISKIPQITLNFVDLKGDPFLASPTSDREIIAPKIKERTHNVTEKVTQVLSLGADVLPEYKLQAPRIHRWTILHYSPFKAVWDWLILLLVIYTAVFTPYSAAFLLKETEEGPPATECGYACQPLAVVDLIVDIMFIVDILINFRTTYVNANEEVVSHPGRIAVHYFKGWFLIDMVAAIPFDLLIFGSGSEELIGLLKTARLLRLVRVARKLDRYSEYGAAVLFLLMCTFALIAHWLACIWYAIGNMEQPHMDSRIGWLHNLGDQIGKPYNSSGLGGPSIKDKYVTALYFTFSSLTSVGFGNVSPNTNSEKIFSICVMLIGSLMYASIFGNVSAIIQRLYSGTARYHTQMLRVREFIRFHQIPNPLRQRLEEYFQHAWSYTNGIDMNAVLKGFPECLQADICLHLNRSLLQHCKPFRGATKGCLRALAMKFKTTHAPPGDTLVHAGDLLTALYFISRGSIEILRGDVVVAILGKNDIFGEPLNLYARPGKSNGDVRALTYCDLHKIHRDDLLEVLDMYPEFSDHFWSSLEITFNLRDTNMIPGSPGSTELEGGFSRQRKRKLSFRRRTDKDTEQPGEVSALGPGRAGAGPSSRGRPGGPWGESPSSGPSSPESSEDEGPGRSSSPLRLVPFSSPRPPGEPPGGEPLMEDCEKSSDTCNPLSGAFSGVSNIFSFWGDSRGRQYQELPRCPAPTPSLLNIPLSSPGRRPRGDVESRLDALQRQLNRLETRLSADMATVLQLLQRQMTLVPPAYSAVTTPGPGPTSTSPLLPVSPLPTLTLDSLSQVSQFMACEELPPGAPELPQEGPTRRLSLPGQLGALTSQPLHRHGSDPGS

O=C1Cc2cc(CCN3CCN(c4nsc5ccccc45)CC3)c(Cl)cc2N1 [5-[2-(4-Benzo[d]isothiazol-3-yl-piperazin-1-yl)-ethyl]-6-chloro-1,3-dihydro-indol-2-one]
Ki: 0.169 µM
